Experimental data reported in BindingDB's records for doi:10.1002/pro.5560071201 (University of Pennsylvania, 1998).
pKd: −log10 of the molar value.

Molecular target: Carbonic anhydrase 2 (Homo sapiens, UniProt P00918)
Experiment: In Vitro Binding for Human Carbonic Anhydrase II
Details: pH 7.4; 37 °C

| SMILES | pKd |
| --- | --- |
| COc1ccc(N2C[C@H](O)c3cc(S(N)(=O)=O)sc3S2(=O)=O)cc1 [4-hydroxy-2-(4-methoxyphenyl)-1,1-dioxo-2H,3H,4H-1,7,2-thieno[3,2-e][1,2]thiazine-6-sulfonamide] | 9.80 |
| COc1cccc(N2CCc3cc(S(N)(=O)=O)sc3S2(=O)=O)c1 [2-(3-methoxyphenyl)-1,1-dioxo-2H,3H,4H-1,7,2-thieno[3,2-e][1,2]thiazine-6-sulfonamide] | 10.00 |
